The target in one test is T1, S-tagged PFKP S386A (human, UniProt Q01813 1-784, S386A).
T1 construct: PFKP, human; also called purified PFKP S386A; source: bacterially expressed, purified
T1 sequence (looked up): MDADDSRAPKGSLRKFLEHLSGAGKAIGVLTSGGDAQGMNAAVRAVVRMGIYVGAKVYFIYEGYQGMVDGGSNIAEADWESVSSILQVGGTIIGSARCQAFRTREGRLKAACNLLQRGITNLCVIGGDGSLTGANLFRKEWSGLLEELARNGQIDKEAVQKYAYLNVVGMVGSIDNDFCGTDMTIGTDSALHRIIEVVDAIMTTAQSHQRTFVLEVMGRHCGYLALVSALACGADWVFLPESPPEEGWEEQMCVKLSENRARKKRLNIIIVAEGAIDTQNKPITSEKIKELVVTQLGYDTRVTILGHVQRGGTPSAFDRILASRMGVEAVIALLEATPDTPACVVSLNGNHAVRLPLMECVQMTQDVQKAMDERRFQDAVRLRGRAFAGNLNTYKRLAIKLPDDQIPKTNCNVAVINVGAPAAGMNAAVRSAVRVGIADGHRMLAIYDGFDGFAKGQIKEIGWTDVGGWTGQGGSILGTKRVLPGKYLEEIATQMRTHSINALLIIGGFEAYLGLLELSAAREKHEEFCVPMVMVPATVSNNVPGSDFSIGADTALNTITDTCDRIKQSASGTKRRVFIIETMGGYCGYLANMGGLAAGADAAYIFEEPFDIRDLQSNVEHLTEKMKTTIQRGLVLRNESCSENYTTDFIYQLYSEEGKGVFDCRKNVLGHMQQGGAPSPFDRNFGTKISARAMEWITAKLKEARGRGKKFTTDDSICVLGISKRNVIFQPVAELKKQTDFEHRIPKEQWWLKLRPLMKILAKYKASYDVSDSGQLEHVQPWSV
Kind of test: pull-down; in vitro kinase reaction of purified S-tagged WT PFKP or PFKP S386A with or without active GST-AKT1, then incubation with purified His-TRIM21 and pull-down. The conditions noted are these: both partners purified.

For test [1], the target named is T2, purified bacterially expressed S-tagged PFKP (human, UniProt Q01813 1-784).
T2 construct: PFKP, human; Probably from the pET32a construct named in the methods (that vector would also add thioredoxin and a His tag); also called S-tagged WT PFKP; purified WT PFKP; source: bacterially expressed, purified
T2 sequence (looked up): T1 sequence (looked up) with A386S
As to the kind of experiment: pull-down; purified bacterially expressed S-tagged PFKP incubated with purified His-TRIM21. Conditions: both partners purified.

Positions count from the first letter of the chain named.

Data on one molecule can be found in paper PMC5643558, “Stabilization of phosphofructokinase 1 platelet isoform by AKT promotes tumorigenesis” (Nature Communications, 2017).

B1: purified His-TRIM21 (enzyme, human, UniProt P19474 1-475, looked up)
chain: MASAARLTMMWEEVTCPICLDPFVEPVSIECGHSFCQECISQVGKGGGSVCPVCRQRFLLKNLRPNRQLANMVNNLKEISQEAREGTQGERCAVHGERLHLFCEKDGKALCWVCAQSRKHRDHAMVPLEEAAQEYQEKLQVALGELRRKQELAEKLEVEIAIKRADWKKTVETQKSRIHAEFVQQKNFLVEEEQRQLQELEKDEREQLRILGEKEAKLAQQSQALQELISELDRRCHSSALELLQEVIIVLERSESWNLKDLDITSPELRSVCHVPGLKKMLRTCAVHITLDPDTANPWLILSEDRRQVRLGDTQQSIPGNEERFDSYPMVLGAQHFHSGKHYWEVDVTGKEAWDLGVCRDSVRRKGHFLLSSKSGFWTIWLWNKQKYEAGTYPQTPLHLQVPPCQVGIFLDYEAGMVSFYNITDHGSLIYSFSECAFTGPLRPFFSPGFNDGGKNTAPLTLCPLNIGSQGSTDY
notes: TRIM21, human; also called purified TRIM21; source: purified; recombinant human TRIM21 bought: BIOTREND Chemicals (pro-328)
As to B1, the binding result (in the test with S-tagged PFKP S386A; in test [1]) was “binds” each time.
